Experiment [1] has as its target T1, GLS1 (Homo sapiens, UniProt O94925). The experiment can be described thus: GLS1 cell assay: intracellular glutamate level in A549 cells (Glutamine/Glutamate-Glo). To be noted: read-out: Cell IC50, 2 h compound pre-incubation, then 24 h with L-Gln.
In experiment [2] the target is T1, GLS1. Description: GLS1 enzymatic assay (three-stage coupled endpoint assay: GLS1/GDH/diaphorase, resorufin fluorescence). To be noted: read-out: Enzyme IC50.

By UniProt entry, the sequences of proteins in these tests, tags left out. Residues count along the entry.
UniProt O94925, 73-669 limits assumed: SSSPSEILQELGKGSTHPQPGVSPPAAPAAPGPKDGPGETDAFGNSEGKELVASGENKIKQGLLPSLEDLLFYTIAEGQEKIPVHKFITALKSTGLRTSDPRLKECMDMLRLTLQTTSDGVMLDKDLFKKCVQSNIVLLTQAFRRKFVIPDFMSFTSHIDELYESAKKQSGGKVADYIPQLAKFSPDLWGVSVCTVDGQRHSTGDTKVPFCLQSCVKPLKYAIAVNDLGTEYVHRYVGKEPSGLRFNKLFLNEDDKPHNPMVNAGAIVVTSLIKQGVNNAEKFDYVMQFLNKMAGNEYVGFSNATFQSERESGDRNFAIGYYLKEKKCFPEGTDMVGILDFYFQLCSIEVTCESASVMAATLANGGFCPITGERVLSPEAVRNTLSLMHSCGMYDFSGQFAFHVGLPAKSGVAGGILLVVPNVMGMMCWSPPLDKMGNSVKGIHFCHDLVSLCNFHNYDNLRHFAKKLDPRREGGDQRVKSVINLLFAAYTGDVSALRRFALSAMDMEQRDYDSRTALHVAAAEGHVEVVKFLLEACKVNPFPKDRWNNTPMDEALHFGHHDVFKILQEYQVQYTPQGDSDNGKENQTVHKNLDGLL
UniProt O94925, 55-669 limits assumed: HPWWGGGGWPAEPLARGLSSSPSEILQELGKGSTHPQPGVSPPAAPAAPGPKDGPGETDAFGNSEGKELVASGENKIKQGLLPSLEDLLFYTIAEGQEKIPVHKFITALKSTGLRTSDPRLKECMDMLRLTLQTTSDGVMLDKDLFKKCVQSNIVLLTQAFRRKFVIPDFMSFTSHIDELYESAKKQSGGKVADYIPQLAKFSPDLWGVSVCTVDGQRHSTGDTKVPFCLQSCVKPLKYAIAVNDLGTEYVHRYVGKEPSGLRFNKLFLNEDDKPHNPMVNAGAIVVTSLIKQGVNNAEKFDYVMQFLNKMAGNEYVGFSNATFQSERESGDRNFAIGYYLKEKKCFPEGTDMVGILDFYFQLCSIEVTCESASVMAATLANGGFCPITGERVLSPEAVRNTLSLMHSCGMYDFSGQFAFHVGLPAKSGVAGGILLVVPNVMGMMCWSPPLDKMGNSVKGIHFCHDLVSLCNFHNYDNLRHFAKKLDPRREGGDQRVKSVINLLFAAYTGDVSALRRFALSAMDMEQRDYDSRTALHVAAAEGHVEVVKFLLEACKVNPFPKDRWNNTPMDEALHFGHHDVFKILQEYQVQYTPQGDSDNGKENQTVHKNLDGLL

The term IC50 denotes the midpoint of a concentration-inhibition curve. With `O=C(C[C@@H]1CCN(Cc2cccc(OC(F)(F)F)c2)C1)Nc1nnc(N[C@@H]2CCN(c3cccnn3)C2)s1`, the IC50 amounted to 7.1 nM in experiment [1] and 47 nM in experiment [2].

As for `CCOc1c(F)cc(CN2CCC[C@@H](CC(=O)Nc3nnc(N[C@@H]4CCN(c5cccnn5)C4)s3)C2)cc1F`, the results for the 50% inhibitory concentration (IC50) in experiment [1] and in experiment [2] were 4.7 nM and 19.1 nM, respectively.

As to `O=C(CC1CN(C2CCC3(CCCC3)CC2)CCO1)Nc1nnc(N[C@@H]2CCN(c3cccnn3)C2)s1` (stereo partly drawn), the 50% inhibitory concentration (IC50) in experiment [1] worked out at 5.6 nM; in experiment [2], 22.4 nM.

In the case of `O=C(CN1CCN(Cc2ccc(OC(F)(F)F)cc2)CC1)Nc1nnc(N[C@@H]2CCN(c3ccc(Cl)nn3)C2)s1`, the half-inhibitory concentration (IC50) in experiment [1] was 3 nM.

Regarding `O=C(CC1CCN(Cc2ccccc2OC2CCC2)CC1)Nc1nnc(N[C@@H]2CCN(c3cccnn3)C2)s1`, the 50% inhibitory concentration (IC50) in experiment [1] is 35.2 nM; in experiment [2], 25.8 nM.

With `O=C(C[C@@H]1CCCN(Cc2ccccc2OC2CCC2)C1)Nc1nnc(N[C@@H]2CCN(c3cccnn3)C2)s1`, the IC50 was 51.8 nM in experiment [1] and 50 nM in experiment [2].

With `O=C(C[C@@H]1COCCN1C1CCCCC1)Nc1nnc(N[C@@H]2CCN(c3cccnn3)C2)s1` (single isomer, unassigned) [Example 227], the IC50 was 33.4 nM in experiment [1] and 67.9 nM in experiment [2].

Regarding `CC1(CC(=O)Nc2nnc(N[C@@H]3CCN(c4cccnn4)C3)s2)CCN(Cc2ccc(OC(F)(F)F)cc2)CC1`, the concentration for half-maximal inhibition (IC50) in experiment [1] was determined as 5.9 nM; in experiment [2], 46.2 nM.

With `Cc1c(Cl)cc(CN2CCN(CC(=O)Nc3nnc(N[C@@H]4CCN(c5cccnn5)C4)s3)CC2)cc1Cl`, in experiment [1], the IC50 was found to be 0.9 nM.

Turning to `CC(C)[C@H]1CC[C@H](N2CCO[C@H](CC(=O)Nc3nnc(N[C@@H]4CCN(c5cccnn5)C4)s3)C2)CC1` (single isomer, unassigned) [Example 246], the IC50 in experiment [1] stood at 2.1 nM; in experiment [2] it was 24.2 nM.

Take `O=C(CC1CCN(Cc2cncc(C(F)(F)F)c2)CC1)Nc1nnc(N[C@@H]2CCN(c3cccnn3)C2)s1`: the IC50 in experiment [1] turned out to be 11.8 nM; in experiment [2], 28.8 nM.

As to `O=C(C[C@@H]1CCCN(Cc2cccc(Cl)c2)C1)Nc1nnc(N[C@@H]2CCN(c3cccnn3)C2)s1`, the figures for the IC50 in experiment [1] and in experiment [2] were 4.2 nM and 58.9 nM, respectively.

Consider `CC(C)Oc1ccccc1[C@@H](C)N1CCC(SCC(=O)Nc2nnc(N[C@@H]3CCN(c4cccnn4)C3)s2)CC1` (single isomer, unassigned) [Example 233], for which the IC50 came to 1.7 nM in experiment [1] and 30.9 nM in experiment [2].

Take `COc1cc(CN2CCC[C@@H](CC(=O)Nc3nnc(N[C@@H]4CCN(c5cccnn5)C4)s3)C2)cc(F)c1C`: the IC50 amounted to 10.3 nM in experiment [1] and 25.8 nM in experiment [2].

Consider `O=C(CCC1CCN(Cc2cccc(OC(F)F)c2)CC1)Nc1nnc(N[C@@H]2CCN(c3cccnn3)C2)s1`, for which the half-inhibitory concentration (IC50) in experiment [1] came out at 15.5 nM; in experiment [2], 27.8 nM.

Regarding `Cc1cc(C)cc(CN2CCC3(CC2)COC(C(=O)Nc2nnc(N[C@@H]4CCN(c5cccnn5)C4)s2)C3)c1` (stereo partly drawn), the results for the IC50 in experiment [1] and in experiment [2] were 8.5 nM and 42.9 nM, respectively.

On to `CC(C)(C)n1ccc(CN2CCC(SCC(=O)Nc3nnc(N[C@@H]4CCN(c5cccnn5)C4)s3)CC2)c1`, for which the figures for the IC50 in experiment [1] and in experiment [2] were 66.1 nM and 22.2 nM, respectively.

Consider `O=C(CSC1CCN(Cc2ccccc2OC2CCC2)CC1)Nc1nnc(N[C@@H]2CCN(c3cccnn3)C2)s1`, for which the results for the IC50 in experiment [1] and in experiment [2] were 1.7 nM and 22.2 nM, respectively.

In the case of `CCN1CCN(Cc2cccc(OC(F)(F)F)c2)[C@H](CC(=O)Nc2nnc(N[C@@H]3CCN(c4cccnn4)C3)s2)C1` (single isomer, unassigned) [Example 206], the IC50 was determined as 10.1 nM in experiment [1] and 42.8 nM in experiment [2].

With `O=C(C[C@@H]1CCCN(Cc2cccc(OC(F)F)c2)C1)Nc1nnc(N[C@@H]2CCN(c3cccnn3)C2)s1`, the IC50 in experiment [1] turned out to be 7.4 nM; in experiment [2], 62.5 nM.

In the case of `O=C(CC1COCCN1C1CCCCC1)Nc1nnc(N[C@@H]2CCN(c3cccnn3)C2)s1` (stereo partly drawn), the IC50 worked out at 28 nM in experiment [1] and 40.1 nM in experiment [2].

As to `CO[C@@H](C(=O)Nc1nnc(N[C@@H]2CCN(c3cccnn3)C2)s1)C1CCN(Cc2ccc(OC(F)(F)F)cc2)CC1` (single isomer, unassigned) [Example 68], the IC50 in experiment [1] amounted to 12.8 nM; in experiment [2] it was 109 nM.

Turning to `O=C(C[C@H]1CCCN(Cc2cc(F)cc(F)c2)C1)Nc1nnc(N[C@@H]2CCN(c3cccnn3)C2)s1`, the IC50 in experiment [1] was found to be 11.2 nM; in experiment [2], 14 nM.

Turning to `CC(C)[C@H]1CC[C@H](N2CCO[C@H](CC(=O)Nc3nnc(N[C@@H]4CCN(c5cccnn5)C4)s3)C2)CC1` (single isomer, unassigned) [Example 247], the concentration for half-maximal inhibition (IC50) in experiment [1] was 6.6 nM; in experiment [2] it was 27.3 nM.

In the case of `O=C(CC1CN(C2CCCCC2)CCO1)Nc1nnc(N[C@@H]2CCN(c3cccnn3)C2)s1` (stereo partly drawn), the IC50 is 34.4 nM in experiment [1] and 36.9 nM in experiment [2].

Take `CC(C)Oc1ccccc1[C@@H](C)N1CCC(SCC(=O)Nc2nnc(N[C@@H]3CCN(c4cccnn4)C3)s2)CC1` (single isomer, unassigned) [Example 234]: the IC50 in experiment [1] stood at 4 nM; in experiment [2] it was 30.1 nM.

Regarding `O=C(CC1CCN(Cc2cccc(C(=O)O)c2)CC1)Nc1nnc(N[C@@H]2CCN(c3cccnn3)C2)s1`, the figures for the IC50 in experiment [1] and in experiment [2] were 9590 nM and 77.4 nM, respectively.

Take `CC1(C)CCC(CN2CCC[C@@H](CC(=O)Nc3nnc(N[C@@H]4CCN(c5cccnn5)C4)s3)C2)CC1`: the IC50 in experiment [1] was found to be 31.1 nM; in experiment [2], 86.5 nM.

Turning to `CC(C)N1CCN(Cc2cccc(OC(F)F)c2)[C@H](CC(=O)Nc2nnc(N[C@@H]3CCN(c4cccnn4)C3)s2)C1` (single isomer, unassigned) [Example 249], the IC50 in experiment [1] worked out at 32.1 nM; in experiment [2] it was 54.1 nM.

Consider `Cc1ccccc1CN1CCC([C@@H](CC2CC2)C(=O)Nc2nnc(N[C@@H]3CCN(c4cccnn4)C3)s2)CC1` (single isomer, unassigned) [Example 222], for which the IC50 turned out to be 29.7 nM in experiment [1] and 82.5 nM in experiment [2].

Turning to `O=C(CC1CCN(Cc2ccccc2OC(F)(F)F)CC1)Nc1nnc(N[C@@H]2CCN(c3cccnn3)C2)s1`, the IC50 in experiment [1] came out at 3.8 nM; in experiment [2], 56.7 nM.

`CN1CCN(Cc2cccc(OC(F)(F)F)c2)C(CC(=O)Nc2nnc(N[C@@H]3CCN(c4cccnn4)C3)s2)C1` (stereo partly drawn): the IC50 in experiment [1] was 14.4 nM; in experiment [2], 45.2 nM.

Consider `CC(C)(C1CCCCC1)N1CCO[C@H](CC(=O)Nc2nnc(N[C@@H]3CCN(c4cccnn4)C3)s2)C1` (single isomer, unassigned) [Example 152], for which the IC50 is 3.8 nM in experiment [1] and 17.1 nM in experiment [2].

For the compound `CC1(C)CCC(CN2CCSC(C(=O)Nc3nnc(N[C@@H]4CCN(c5cccnn5)C4)s3)C2)CC1` (stereo partly drawn), the IC50 worked out at 12.1 nM in experiment [1] and 212 nM in experiment [2].

Take `CC(C)Sc1ccccc1CN1CC2(CCCN(CC(=O)Nc3nnc(N[C@@H]4CCN(c5cccnn5)C4)s3)C2)C1`: the results for the IC50 in experiment [1] and in experiment [2] were 1.7 nM and 14.5 nM, respectively.

Turning to `CC(C)(C1CCCCC1)N1CCO[C@H](CC(=O)Nc2nnc(N[C@@H]3CCN(c4cccnn4)C3)s2)C1` (single isomer, unassigned) [Example 153], the 50% inhibitory concentration (IC50) was 1.2 nM in experiment [1] and 19.7 nM in experiment [2].

As for `O=C(CN1CCN(Cc2cccc(F)c2F)CC1)Nc1nnc(N[C@@H]2CCN(c3cccnn3)C2)s1`, the IC50 in experiment [1] is 8.3 nM.

`O=C(CN1CCN(Cc2cc(F)cc(Br)c2)CC1)Nc1nnc(N[C@@H]2CCN(c3cccnn3)C2)s1`: the IC50 in experiment [1] was found to be 1.7 nM.

On to `O=C(CN1CCN(Cc2cc(Cl)cc(C(F)(F)F)c2)CC1)Nc1nnc(N[C@@H]2CCN(c3cccnn3)C2)s1`, for which the IC50 in experiment [1] was found to be 1.3 nM.

With `COc1c(F)cc(CN2CCN(CC(=O)Nc3nnc(N[C@@H]4CCN(c5cccnn5)C4)s3)CC2)cc1F`, the concentration for half-maximal inhibition (IC50) in experiment [1] worked out at 3.4 nM.

Take `O=C(CN1CCN(Cc2ccc(C(F)(F)F)c(F)c2)CC1)Nc1nnc(N[C@@H]2CCN(c3cccnn3)C2)s1`: in experiment [1], the half-maximal inhibitory concentration (IC50) was found to be 0.9 nM.

For the compound `O=C(CN1CCN(Cc2ccc(F)c(F)c2)CC1)Nc1nnc(N[C@@H]2CCN(c3cccnn3)C2)s1`, in experiment [1], the IC50 turned out to be 6.9 nM.

Regarding `O=C(CN1CCN(Cc2cccc(OC(F)F)c2)CC1)Nc1nnc(N[C@@H]2CCN(c3cccnn3)C2)s1`, the IC50 in experiment [1] is 7.6 nM.

`O=C(CN1CCN(Cc2ccc(C(F)(F)F)cc2Cl)CC1)Nc1nnc(N[C@@H]2CCN(c3cccnn3)C2)s1`: the IC50 in experiment [1] was determined as 2 nM.

Consider `O=C(CN1CCN(Cc2cc(F)cc(C(F)(F)F)c2)CC1)Nc1nnc(N[C@@H]2CCN(c3cccnn3)C2)s1`, for which the IC50 in experiment [1] stood at 1.4 nM.

Turning to `O=C(CN1CCN(Cc2ccc(OC(F)(F)F)cc2)CC1)Nc1nnc(N[C@H]2CN(c3cccnn3)C[C@@H]2F)s1`, the IC50 in experiment [1] amounted to 1.7 nM.

Take `O=C(CN1CCN(Cc2c(F)cc(Cl)cc2Cl)CC1)Nc1nnc(N[C@@H]2CCN(c3cccnn3)C2)s1`: the IC50 in experiment [1] was 2.5 nM.

Regarding `O=C(CN1CCN(Cc2cc(F)cc(F)c2)CC1)Nc1nnc(N[C@@H]2CCN(c3cccnn3)C2)s1`, in experiment [1], the IC50 came to 6.3 nM.

With `Cc1ccc(CN2CCN(CC(=O)Nc3nnc(N[C@@H]4CCN(c5cccnn5)C4)s3)CC2)cc1OC(F)F`, in experiment [1], the IC50 came to 2.9 nM.

Take `O=C(CN1CCN(Cc2cc(F)c3c(c2)CCC3)CC1)Nc1nnc(N[C@@H]2CCN(c3cccnn3)C2)s1`: the IC50 in experiment [1] is 1.2 nM.

Regarding `O=C(CN1CCN(Cc2ccccc2OC(F)(F)F)CC1)Nc1nnc(N[C@@H]2CCN(c3cccnn3)C2)s1`, the 50% inhibitory concentration (IC50) in experiment [1] was found to be 3 nM.

Turning to `O=C(CN1CCN(Cc2ccc(OC(F)(F)F)c(Cl)c2)CC1)Nc1nnc(N[C@@H]2CCN(c3cccnn3)C2)s1`, the IC50 in experiment [1] was 1 nM.

Regarding `COc1cc(CN2CCN(CC(=O)Nc3nnc(N[C@@H]4CCN(c5cccnn5)C4)s3)CC2)ccc1C(F)(F)F`, the IC50 in experiment [1] came to 1.1 nM.

Consider `O=C(CN1CCN(Cc2cc(F)cc(Cl)c2)CC1)Nc1nnc(N[C@@H]2CCN(c3cccnn3)C2)s1`, for which the IC50 in experiment [1] came to 2.7 nM.

In the case of `O=C(CN1CCN(Cc2cc(OC(F)(F)F)ccc2Cl)CC1)Nc1nnc(N[C@@H]2CCN(c3cccnn3)C2)s1`, the IC50 in experiment [1] stood at 1.3 nM.

`O=C(CN1CCN(Cc2cccc(OC(F)(F)F)c2)CC1)Nc1nnc(N[C@@H]2CCN(c3cccnn3)C2)s1`: in experiment [1], the IC50 is 1.1 nM.

Source of the values: US20260384443A1, “THIADIAZOLES AS GLUTAMINASE I INHIBITORS” (published 2026).
